From the Kinase Knowledgebase extract (Sharma et al. 2016)

Amino acid sequences for entries named in this document (tags omitted). A change or cut given only in a name is not applied to a line headed by its entry.
UniProt O00329: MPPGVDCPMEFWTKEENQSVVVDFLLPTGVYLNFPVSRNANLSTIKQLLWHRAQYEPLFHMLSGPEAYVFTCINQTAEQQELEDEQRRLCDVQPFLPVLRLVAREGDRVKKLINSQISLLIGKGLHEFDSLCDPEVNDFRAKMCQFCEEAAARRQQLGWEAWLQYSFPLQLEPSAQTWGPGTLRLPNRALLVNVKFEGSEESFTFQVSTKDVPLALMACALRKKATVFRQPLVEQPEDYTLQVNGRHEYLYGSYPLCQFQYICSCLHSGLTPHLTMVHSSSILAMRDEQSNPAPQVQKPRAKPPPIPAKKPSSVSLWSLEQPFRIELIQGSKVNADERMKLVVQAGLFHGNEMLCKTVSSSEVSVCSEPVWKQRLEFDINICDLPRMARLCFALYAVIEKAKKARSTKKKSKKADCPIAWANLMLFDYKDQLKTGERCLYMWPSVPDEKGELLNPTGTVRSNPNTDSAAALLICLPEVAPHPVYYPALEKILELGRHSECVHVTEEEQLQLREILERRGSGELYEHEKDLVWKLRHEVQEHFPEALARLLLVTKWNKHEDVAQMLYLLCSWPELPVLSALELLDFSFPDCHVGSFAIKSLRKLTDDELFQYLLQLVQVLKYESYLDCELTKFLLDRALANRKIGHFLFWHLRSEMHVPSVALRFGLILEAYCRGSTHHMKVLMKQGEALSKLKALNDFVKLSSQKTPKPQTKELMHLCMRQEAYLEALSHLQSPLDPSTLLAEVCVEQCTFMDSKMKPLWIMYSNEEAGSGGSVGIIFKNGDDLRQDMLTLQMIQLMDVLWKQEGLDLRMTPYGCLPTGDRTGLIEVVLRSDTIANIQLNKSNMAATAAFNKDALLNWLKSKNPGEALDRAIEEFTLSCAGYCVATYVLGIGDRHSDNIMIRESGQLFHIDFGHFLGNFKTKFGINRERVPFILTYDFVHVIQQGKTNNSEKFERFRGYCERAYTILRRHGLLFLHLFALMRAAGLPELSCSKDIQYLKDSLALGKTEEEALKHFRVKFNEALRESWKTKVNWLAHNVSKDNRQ

Target: PIK3CD (Human) (UniProt O00329)
Assay: Enzyme Assay

Nc1cnc(-n2c([C@@H](Nc3ncnc(N)c3Cl)C3CC3)nc3cccc(Cl)c3c2=O)cn1
IC50: 30 nM
